Test system: vascular permeability in guinea pig skin
Conditions: in vivo

## VEGF
  induction of vascular permeability: induced vascular permeability
